# Binding of CDR-mutated scFvs to a peptide of the spike HR2 region

The target is the same throughout: PDVDLGDISGINAS, from the HR2 region of SARS-CoV-2 spike.

Parent scFv Ab-14: VH joined to VL by the linker GGGGSGGGGSGGGGS. Changes lie in the heavy chain CDRs alone.
VH: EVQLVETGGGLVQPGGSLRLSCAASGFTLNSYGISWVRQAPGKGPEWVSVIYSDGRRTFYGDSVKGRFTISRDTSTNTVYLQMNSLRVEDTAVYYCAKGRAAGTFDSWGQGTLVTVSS
VL: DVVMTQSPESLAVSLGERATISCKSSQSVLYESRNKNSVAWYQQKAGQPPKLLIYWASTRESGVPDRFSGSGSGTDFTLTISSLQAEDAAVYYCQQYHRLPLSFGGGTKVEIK

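Phage display of a naive human antibody library on the peptide gave the parent. AAYL49 was designed without a model: most single CDR substitutions and a random sample of double and triple ones. In AlphaSeq, yeast of one mating type display the scFv and yeast of the other type display the target. The frequency of each diploid, read from paired DNA barcodes, reflects how well the two displayed proteins bind. Each replicate has its own calibration line, from reference interactions of the BCL2 family. Mating was done three times.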

Each variant is given by its three heavy chain CDRs, as the data file delimits them; those of the parent are GFTLNSYGIS, VIYSDGRRTFYGDSVK, GRAAGTFDS. Values are apparent Kd, the geometric mean of the replicates that gave a signal; lower means stronger binding. "nd" means that the variant was in the library but no mating with the target was seen in any replicate; the authors take this as a sign of poor binding, and no number exists.

| Kd | detected | CDR-H1 | CDR-H2 | CDR-H3 |
|---|---|---|---|---|
| nd | 0/3 | GFTLNTYGIS | VIWSDGRRTFYGDSVK | GRAAGTPDS |
| nd | 0/3 | GFTLNSYGIS | VIYSDGRSTFYEDSVK | GRAAGTFDS |
| 3.3 µM | 1/3 | LFMLNSYGIS | VIYSDGRRTFYGDSCK | GRAAGTFDS |
| 18 µM | 1/3 | GFTLNSYGIQ | VIYSDGRRTFYGMSVK | GRAAGTFDS |
| 38 µM | 1/3 | GFTLNSYGIS | VIYSQGRQTFYGDSDK | GRAAGTFDS |
| 190 nM | 3/3 | GFTLNSFGIS | VIYSDGRRTFYGDSVK | GRAAGTFDF |
| 27 µM | 3/3 | GFTLNSYGIS | VIYSDGRRTFLGDRAK | GRAAGTFDS |
| 2.5 µM | 1/3 | GFTLNSYGIS | VFKSDGRRTFYGDRVK | GRAAGTFDS |
| nd | 0/3 | GFTLNSYGIS | VIYSPGRRTFYGDSGK | GRAAGTFLS |
| 2.4 µM | 1/3 | VFHLNSYGIS | VIYQDGRRTFYGDSVK | GRAAGTFDS |
| 9.6 µM | 1/3 | GFCLNSYGIS | VIYSDGRRTFYGDSVI | GRAAGTSDS |
| nd | 0/3 | FFTWNSYGIS | VIYSDGRRTFYGDSVK | GRAAGTIDS |
| nd | 0/3 | GFVLNSYGIS | VIYSDGRRTPYGDSVK | WRAAGTFDS |
| 1.8 µM | 1/3 | GFTLNSYGIS | VILSDGRRTFYGDSVK | GRAAGTDSS |
| nd | 0/3 | GFTLNSYGIS | VAYSDGRRTFQGDSVK | GRMAGTFDS |
| nd | 0/3 | GFTLNSYGIS | VIYCDGRRTKYGHSVK | GRAAGTFDS |
| nd | 0/3 | GFTLNSYGIS | VIYSDGRYTPYGDSVK | GRAEGTFDS |
| 87 nM | 3/3 | VFTLPSGGIS | VIYSDGRRTFYGDSVK | GRAAGTFDS |
| nd | 0/3 | LFTLNSYGIS | HIYSDGRRTCYGDSVK | GRAAGTFDS |
| nd | 0/3 | GFTLNSYGIS | VIYSDQFRKFYGDSVK | GRAAGTFDS |
| nd | 0/3 | GFTLNSYGIS | VIYSDGRPMFYGDSVK | GRAAGTFDS |
| 140 nM | 3/3 | GFTLPSYGIS | VIYSDGRRTEYGDSVK | GRAAGTFDS |
| 5.1 µM | 1/3 | GFTLNSYGYS | VIYSDGRRTFEFDSVK | GRAAGTFDS |
| 230 nM | 3/3 | GFTLNSYGIS | VIYSDGERYFYGDSVK | GRAAGTEDS |
| 2.8 µM | 1/3 | GFTLNSYGIS | VIYSDGRRTFYGQSHK | GRAAGTFDS |
| 280 nM | 1/3 | AFTLNSYGIS | VIYSDGRRTFYGDSVK | HRAAGAFDS |
| 12 nM | 3/3 | GVTLNSYGIS | VIYSDGRRTAYKDSVK | GRAAGTFDS |
| nd | 0/3 | GFCLNSYGIS | VIYSDGRRTFYGDSWK | GRAAETFDS |
| 130 µM | 2/3 | GFTLNSYGIS | PIYSDGRRTFYGDSVR | GRAAGWFDS |
| nd | 0/3 | GFTLNSYGWS | VIYSDGRHTFYGDSVK | GRAAGTFCS |
| 140 µM | 1/3 | GFTLNSYGFS | VHGSDGRRTFYGDSVK | GRAAGTFDS |
| 34 µM | 2/3 | GFTLNSYGIS | VIYSDGRRTFYGISVK | GRAAHGFDS |
| 99 nM | 3/3 | GFTLNSYGIS | VIYSDGRRTFYCDRVK | GRAAGKFDS |
| 27 µM | 1/3 | GFTLNSWGIS | VIYSDGRRTFYGDSRH | GRAAGTFDS |
| 8.6 µM | 3/3 | GFTTNSYGIS | VIYSDGRRTFYGDSVK | GRAACNFDS |
| nd | 0/3 | GFTLNSYGIS | KIYSDGRRTFYGDSVD | GRAAGTFDS |
| nd | 0/3 | AFTLNSYGIS | VEYSDDRRTFYGDSVK | GRAAGTFDS |
| nd | 0/3 | GFTLNSYGIS | ICYSDGRRTFYGDSVK | GRAADTFDS |
| nd | 0/3 | GFTLNSYGIS | VIYPDGRRDFYGDSVK | GRAAGTEDS |
| nd | 0/3 | GFTLNSYGIS | VITLPGRRTFYGDSVK | GRAAGTFDS |
| 17 µM | 1/3 | GFTLNKYGIS | VIYFDGPRTFYGDSVK | GRAAGTFDS |
| 1.8 mM | 1/3 | GFTLNSYGIS | VIYSTGRRQFYGDSVK | GHAAGTFDS |
| nd | 0/3 | GFTLNSYGIS | DIYHDGRRTFYGDSVK | GRAAGTQDS |
| 7.9 µM | 2/3 | GWTLNSYGIS | VIYSDGRETFYGDSVK | NRAAGTFDS |
| 20 µM | 3/3 | GFTLNSYGID | VIYSDGRRTDYPDSVK | GRAAGTFDS |
| nd | 0/3 | AFTLNSYGIS | VCYSDGRRTFYGDSVK | GRAASTFDS |
| 5.4 µM | 1/3 | GFTLNSYGIS | VIYVDGRRTFYGDSVL | GRAAGTFHS |
| 700 nM | 3/3 | GFMLNSYGIS | VIYSDGRRRFYGSSVK | GRAAGTFDS |
| 2.7 µM | 1/3 | GFTLNMYGIS | VIYSDGRGTFYGDSVK | GRAAGLFDS |
| 43 µM | 2/3 | GFTLNSYGSS | VIYSDGRRTVYGDSMK | GRAAGTFDS |
| 43 µM | 2/3 | GTTLNSYGIS | VMYSDGRRTFYGDYVK | GRAAGTFDS |
| nd | 0/3 | GFTLNSYGIS | VIGSDGVRTFYGDSVK | GRAAGTYDS |
| 1.2 µM | 3/3 | GFTVNSYGIS | VIYSDGRRTFYGDSVK | GRAQGTNDS |
| nd | 0/3 | GFTLNSYGIS | VTYSQGRRTFYGDSVK | GRAAGTFMS |
| nd | 0/3 | GFTLNSYGIS | VIYQKQRRTFYGDSVK | GRAAGTFDS |
| nd | 0/3 | GFTLNSYGIS | VIYSDGMRTFYGDRVK | GRQAGTFDS |
| 17 µM | 2/3 | GFTLNSYGIS | VIYSDGRRRFYGDSVK | GRPAGTFDS |
| nd | 0/3 | GFTLNDYGIS | VTYSDGRRTFQGDSVK | GRAAGTFDS |
| nd | 0/3 | GPTLNSYGIS | VIYSDMRRTFYGDSVK | GRATGTFDS |
| 230 µM | 1/3 | GFTLNSYYIS | VIYSDGRRTFYGDSVQ | GRAAGTYDS |
| 3.5 µM | 1/3 | GWTLMSYGIS | VIYRDGRRTFYGDSVK | GRAAGTFDS |
| 1.6 µM | 2/3 | GFTLNSYGIS | VIYSDGRRTRYGDSVK | GRAAGTGDD |
| nd | 0/3 | GFTLNSYGIS | VIYSDGMRTFYGDSKK | GRAAGLFDS |
| 9.9 µM | 1/3 | GFGLNSYGIS | VIYSDGTRTFYGDSVK | GRAACTFDS |
| nd | 0/3 | GFHLNSYGIS | VIYSDGRRTFYGDSVK | GRAAGTFCF |
| 22 µM | 2/3 | TFTLNSYGIS | VIYSDGRNTFYGDSVK | GRAAGTFDS |
| nd | 0/3 | GHTLNSYGIS | VIYSDIRRTFYGKSVK | GRAAGTFDS |
| 580 nM | 2/3 | GFSLNSWGIS | VIYSDGRRTFYGDSVK | GRAAGTFDS |
| nd | 0/3 | GFTLNSYGIS | VIYSDGRRTFYGDSVK | GRYQGTFES |
| nd | 0/3 | GFTLNSYGIS | VIYSDGRRTFMGDSVK | GRIKGTFDS |
| nd | 0/3 | GFTLNRYGIS | VIYSDQRRTFYGYSVK | GRAAGTFDS |
| nd | 0/3 | GFTLNLYGIS | VIYSDGRRTFYGASVK | GRAAGTTDS |
| nd | 0/3 | GFTLNSYGIS | VIYSDGRRTFYGDHVK | WRAAGTADS |
| 66 nM | 3/3 | GFTLNSYGIS | VIFSDGRRTFYGDSVK | GRAAGTFDD |
| nd | 0/3 | GKTLNSYGIS | VIMSDGRRTFYHDSVK | GRAAGTFDS |
| nd | 0/3 | GFTLNSYGIS | DIYSDRRRTFYGDSVK | GRAAGTFSS |
| 230 nM | 3/3 | GFTLNSYGIS | VIYSDGRMTSYGDSVK | GRNAGTFDS |
| nd | 0/3 | GFTLNPYGIS | VIYCDGRRTFYGDSVK | GRAAGTFDS |
| nd | 0/3 | GFTLNSYGIS | VIYSDGRRTFKGDSAK | PRAAGTFDS |

A selection of 7 entries from above:

| CDR-H1 | CDR-H2 | CDR-H3 | Kd | detected |
|---|---|---|---|---|
| GFTLNSYGIS | VIYSQGRQTFYGDSDK | GRAAGTFDS | 38 µM | 1/3 |
| GFTLNMYGIS | VIYSDGRGTFYGDSVK | GRAAGLFDS | 2.7 µM | 1/3 |
| VFTLPSGGIS | VIYSDGRRTFYGDSVK | GRAAGTFDS | 87 nM | 3/3 |
| GFTLNSYGID | VIYSDGRRTDYPDSVK | GRAAGTFDS | 20 µM | 3/3 |
| GFTLNSYGIS | VIYQKQRRTFYGDSVK | GRAAGTFDS | nd | 0/3 |
| GFTLNSWGIS | VIYSDGRRTFYGDSRH | GRAAGTFDS | 27 µM | 1/3 |
| AFTLNSYGIS | VIYSDGRRTFYGDSVK | HRAAGAFDS | 280 nM | 1/3 |

For reference, the parent read 4.4 nM as the reference entry and 13 µM (one replicate of three) as a member of this library. Empty control strains, which show no peptide, gave a signal in 15% of pairings with library AAYL49; the median was 11 µM and 95% of these signals were weaker than 680 nM. No background was subtracted.

From the AlphaSeq antibody data of Engelhart et al. 2022 (doi:10.1038/s41597-022-01779-4), copy in the FLAb collection.